Experimental findings from patent publication US20040259082A1 (priority 2001, published 2004) are described below.

The subject of series [1] is single-stranded M13 DNA template. Put plainly: Strand-displacement DNA synthesis. The note with it: primed M13 ssDNA; 200 μM dNTPs; 1 hr at 37° C.
Series [2] in a line: Primer extension assay of T7 pol-mutant. Format: biochemical. As to conditions: primer extension assay of FIG. 9. The protocol:
FIG. 11 illustrates the lack of polymerase activity of the T7 pol-mutant. The T7 pol-mutant was tested for activity using the primer extension assay of FIG. 9. (Lane 1) Pol+control, 4 dNTPs. (Lane 2) Pol+control, dTTP only. (Lane 3) Pol+control, no dNTPs. (Lane 4) complete reaction with pol-mutant.
Asp-654 chelates the active-site Mg++ in T7 polymerase (see, Doublie et al., Structure, 7:R31-R35 (1999)), so changing it to a non-acidic residue should inactivate the polymerization function. Stratagene's QuikChange kit was used to make a D654P mutation.

On to “φ29 polymerase: purified C-Terminal His-tagged φ29 polymerase from clone SEQ. ID. NO: 37”, for which the strand-displacement synthesis result in series [1] was “production of M13 concatemers too large to enter the gel”.

B1: D654P: polymerase-defective D654P mutant of T7 DNA polymerase exo- (protein, UniProt P00581 1-704, looked up, variant D654P)
DNA-directed DNA polymerase: MIVSDIEANALLESVTKFHCGVIYDYSTAEYVSYRPSDFGAYLDALEAEVARGGLIVFHNGHKYDVPALTKLAKLQLNREFHLPRENCIDTLVLSRLIHSNLKDTDMGLLRSGKLPGKRFGSHALEAWGYRLGEMKGEYKDDFKRMLEEQGEEYVDGMEWWNFNEEMMDYNVQDVVVTKALLEKLLSDKHYFPPEIDFTDVGYTTFWSESLEAVDIEHRAAWLLAKQERNGFPFDTKAIEELYVELAARRSELLRKLTETFGSWYQPKGGTEMFCHPRTGKPLPKYPRIKTPKVGGIFKKPKNKAQREGREPCELDTREYVAGAPYTPVEHVVFNPSSRDHIQKKLQEAGWVPTKYTDKGAPVVDDEVLEGVRVDDPEKQAAIDLIKEYLMIQKRIGQSAEGDKAWLRYVAEDGKIHGSVNPNGAVTGRATHAFPNLAQIPGVRSPYGEQCRAAFGAEHHLDGITGKPWVQAGIDASGLELRCLAHFMARFDNGEYAHEILNGDIHTKNQIAAELPTRDNAKTFIYGFLYGAGDEKIGQIVGAGKERGKELKKKFLENTPAIAALRESIQQTLVESSQWVAGEQQVKWKRRWIKGLDGRKVHVRSPHAALNTLLQSAGALICKLWIIKTEEMLVEKGLKHGWDGDFAYMAWVHPEIQVGCRTEEIAQVVIETAQEAMRWVGDHWNFRCLLDTEGKMGPNWAICH
modifications: exonuclease-deficient, changes unstated
On to B1, for which the polymerase activity result in series [2] is reported as “no polymerase activity”.
